Reference: patent publication US20040198743A1 (Schering Corporation, priority 2003, published 2004)

Amino acid sequences for entries named in this document (tags omitted). A change or cut given only in a name is not applied to a line headed by its entry.
UniProt Q9Y5N1: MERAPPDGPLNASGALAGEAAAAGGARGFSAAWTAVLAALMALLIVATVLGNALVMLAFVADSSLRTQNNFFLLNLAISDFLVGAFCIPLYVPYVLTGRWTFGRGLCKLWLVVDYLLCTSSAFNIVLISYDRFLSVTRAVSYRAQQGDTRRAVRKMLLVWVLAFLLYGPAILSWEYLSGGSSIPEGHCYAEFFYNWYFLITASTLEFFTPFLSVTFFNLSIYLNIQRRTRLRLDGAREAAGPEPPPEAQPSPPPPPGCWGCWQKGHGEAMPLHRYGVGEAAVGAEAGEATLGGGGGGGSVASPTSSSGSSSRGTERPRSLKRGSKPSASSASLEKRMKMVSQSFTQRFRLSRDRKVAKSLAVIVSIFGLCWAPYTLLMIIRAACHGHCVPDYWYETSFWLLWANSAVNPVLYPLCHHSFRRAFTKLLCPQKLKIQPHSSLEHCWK

Target: T1, Histamine Receptor H3 (Homo sapiens, UniProt Q9Y5N1)
T1 construct: expressed in transfected cells; host or cells: HEK293
Assay: Membrane binding assay, [3H]-N'-methylhistamine for H3 binding
Method: Materials. Rat and guinea-pig brains were obtained frozen from Rockland Immunochemicals (Gilbertsville, Pa.). Cell lines expressing recombinant human receptors were generated by using standard transfection techniques. The following radioligands were obtained from Dupont NEN (Boston, Mass.): [^3H]-pyrilamine, 23 Ci/mmol for H 1 binding and [^3H]-N′-methylhistamine, 82 Ci/mmol for H3 binding.
Methods. Recombinant cell lines (i.e., human H1—CHO cells and human H3-HEK293) were cultured in Dulbecco's modified Eagle's medium/10% fetal bovine serum supplemented with 2 mM glutamine, penicillin (100 U/ml), and streptomycin (100 μg/ml) in a humidified 5% CO2 atmosphere at 37° C. Selection was maintained with 0.5 mg geneticin/ml. […]
Binding assays. […] Nonspecific binding was determined in the presence of 10^−6 M chlorpheniramine for H1 binding or 10^−6 M clobenpropit for H3 binding. […] These were washed three times with 1.2 ml of Tris buffer, dried in a microwave oven, impregnated with Meltilex wax scintillant and counted at 40% efficiency in a Betaplate scintillation counter (Wallac). IC50 values were determined by interpolation or by nonlinear, least-squares, curve-fitting with the Prism program (GraphPad Software). Ki values were determined in the manner of Cheng and prusoff (Cheng, et al., (1973) Biochem. Pharm. 22:3099-3108).

## NC(=NCc1ccc(Cl)cc1)SCCCc1cnc[nH]1 [Formula 16]
  Ki: 0.06 nM
